These results are taken from US8927063B2, “Compositions for the treatment of timber and other wood substrates” (TimTechChem International Limited, priority 2008, dated 2015).

A short description of this data set: Example 2: solvent evaporation rate from treated wood pieces (daily re-weighing). Particulars: 17-22 °C, no external airflow.

For the compound `O` [Water, water, reference compound], the “% Solvent Remaining in Wood” value was found to be 22.4% (After 24 h), 14.3% (After 48 h) and 12.2% (After 72 h).
